Laboratory results: ChEMBL document CHEMBL1138933 (J Med Chem, 2006)

Sequences of proteins named here, by UniProt entry; tags and fusion partners are left off.
UniProt P08908, whole entry: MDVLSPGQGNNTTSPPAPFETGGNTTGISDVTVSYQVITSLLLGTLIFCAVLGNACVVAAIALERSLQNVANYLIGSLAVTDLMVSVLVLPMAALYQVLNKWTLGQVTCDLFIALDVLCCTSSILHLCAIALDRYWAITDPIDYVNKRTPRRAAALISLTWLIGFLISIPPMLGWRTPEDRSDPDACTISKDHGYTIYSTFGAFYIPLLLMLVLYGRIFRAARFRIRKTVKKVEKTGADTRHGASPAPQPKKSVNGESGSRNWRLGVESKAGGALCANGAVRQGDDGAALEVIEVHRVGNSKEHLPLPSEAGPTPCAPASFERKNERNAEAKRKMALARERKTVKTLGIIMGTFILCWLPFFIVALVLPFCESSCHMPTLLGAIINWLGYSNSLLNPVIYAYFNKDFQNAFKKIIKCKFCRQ

Columns and labels:
[1] = target: T1, 5-hydroxytryptamine receptor 1A (Homo sapiens, UniProt P08908); test: biochemical
[2] = target: T1, 5-hydroxytryptamine receptor 1A

NC(=O)c1ccc(F)c2c1CC(N(CCCc1c[nH]c3ccc(F)cc13)CC1CC1)CO2 (racemic)
Ki [1]: 2.3 nM

NC(=O)c1ccc(F)c2c1C[C@H](N(CCCc1c[nH]c3ccc(F)cc13)CC1CC1)CO2
Ki [1]: 0.1 nM

NC(=O)c1ccc(F)c2c1C[C@@H](N(CCCc1c[nH]c3ccc(F)cc13)CC1CC1)CO2
IC50 [2]: 70 nM | Ki [1]: 2.1 nM
